US20240101670A1 (Eli Lilly, published 2024)

Molecular target: T1, soluble, extracellular domain (ECD) of LAIR1 (human, UniProt Q6GTX8 22-163)
T1 construct: Produced recombinantly; also called LAIR1-ECD; LAIR1 ECD protein
T1 chain: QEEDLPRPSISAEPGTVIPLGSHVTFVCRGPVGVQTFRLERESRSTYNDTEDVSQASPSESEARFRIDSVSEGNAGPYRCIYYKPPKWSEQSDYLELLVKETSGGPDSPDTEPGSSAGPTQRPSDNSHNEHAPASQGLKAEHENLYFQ
Test: HDX-MS of the complex
Protocol: Hydrogen deuterium exchange coupled with mass spectrometry (HDX-MS) was performed to determine where parental mAb4 binds the ECD of LAIR1.
Peptide identification for LAIR1 ECD was performed on a Waters Synapt G2Si (Waters Corporation) instrument using 3.5 μg of LAIR1 ECD protein at zero exchange (1:10 dilution in 0.1× phosphate buffered saline in H₂O) using nepenthesin II (Nep II) for digestion. The mass spectrometer was set in HDMSe (Mobility ESI+ mode) using a mass acquisition range of m/z 255.00-1950.00 with a scan time of 0.4 s. Data was processed using PLGS 2.3.03 (Waters Corporation). For the exchange experiments, the complex of LAIR1 ECD protein with mAb4 was prepared at the molar ratio of 1:1.2 in 10 mM sodium phosphate buffer, pH 7.4 containing 150 mM NaCl (1×PBS buffer). The experiment was initiated by adding 25 μL of D20 buffer containing 0.1×PBS to 2.5 μl of LAIR1 ECD (0.7 mg/mL) or LAIR1 ECD+mAb4 complex at 15° C. for various amounts of time (0s, 10s, 2 min, 10 min and 60 min) using a custom TECAN sample preparation system (Espada et al. 2019). The reaction was quenched using equal volume of was 0.32M TCEP, 0.1M phosphate pH 2.5 for two minutes at 4° C. and immediately frozen at −70° C. […]

B1: Ab0 (Parental Ab4) (antibody, human IgG1, kappa, V domains shown)
VH: QVQLQESGPGLVKPSETLSLTCTVSGGSISNNYWSWIRQSAGKGLEWIGRMYSSGSTNKNPSLKSRVTMSVDTSKNQFSLKLTSVTAADTAVYYCARGPNWGSPYYGVDVWGQGTTVTVSS
VL: DVVMTQSPLSLPVTPGEPASISCRSSQSLLHSDGYNYLDWYLQKPGQSPQVLIYLGSNRASGVPDRFSGSGSGTDFTLKISRVEAEDVGVYYCMQALQTPFTFGPGTKVEIKR
B1: binds.
